Values of other authors, collected in article PMC12064631 (Clinical Pharmacokinetics, 2025).

Experiments:
DPP-4 = conditions: single dose of 25 mg, patients with type 2 diabetes; cited from earlier work
[1] = tested on: DPP-4 activity in the plasma; conditions: plasma of humans, rodents, dogs, and monkeys, range over species; cited from earlier work

Compound	Emax,DPP-4 (DPP-4) [%]	IC50 [1] [nM]
Cn1c(=O)cc(N2CCC[C@@H](N)C2)n(Cc2ccccc2C#N)c1=O [alogliptin]	92.7	–
N[C@@H](CC(=O)N1CCn2c(nnc2C(F)(F)F)C1)Cc1cc(F)c(F)cc1F [sitagliptin, reference compound]	–	12.3 to 64.4
